Test results reported in patent publication US5576341A, “2-[[2-(N-isobutyl-N-methyl)amino]benzylsulfinyl]-benzimidazole as antimicrobial agent” (Nippon Chemiphar Co., Ltd., priority 1993, dated 1996).
In brackets after ≈: the same amount, converted by molar mass.

Key:
[1] = system: Helicobacter pylori standard strains and wild strains; conditions: Table 1 summary
[2] = system: Helicobacter pylori standard strains and wild strains; assay: microbe, parasite or virus in culture; conditions: 144 h, read-out: MIC range against the standard strains as well as wild strains

| SMILES | antimicrobial activity to Helicobacter pylori (in words) [1] | MIC [2] |
| --- | --- | --- |
| CN/C(=N/CCSCc1nc[nH]c1C)NC#N [Cimetidine] | low antimicrobial activity |  |
| CC(C)CN(C)c1ccccc1C[S+]([O-])c1nc2ccccc2[nH]1 (stereo not shown) [Compound (1), 2-[[2-(N-isobutyl-N-methyl)amino]benzylsulfinyl]benzimidazole] | comparable to Omeprazole | 12.5 to 50 µg/mL (≈ 36.6 to 146 µM) |
| NC(N)=Nc1nc(CSCCC(N)=NS(N)(=O)=O)cs1 [Famotidine] | low antimicrobial activity |  |
